esBAF inh: blocks esBAF chromatin remodeling in mouse ES cells; Bmi1-luciferase knock-in reporter, 24 h; 100% = twice the neutral-well signal; reporter increase, % at 12.5 µM; 2% of 350,000 active; AID 602393; in the data active = activation above about 40%;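 note: a rise in the Bmi1 reporter signal indicates esBAF inhibition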
PglD DTNB: blocks C. jejuni PglD acetyltransferase activity | purified PglD enzyme, DTNB colorimetric CoA detection | inhibition, % at 12.5 µM | 0.098% of 360,000 active | AID 602405; in the data active = inhibition above about 16%, passing the limit was not always enough
E-sel inducer: induces E-selectin expression in human endothelial cells | P16581 | 0.37% of 260,000 active | HUVEC E-selectin immunofluorescence imaging; normalized: neutral wells 0, TNF-alpha wells 100 | activation, % at 7.58 µM;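 active = mean E-selectin-positive cell signal at least 10% of the positive control, reached in at least 60% of replicates, without over 20% cell loss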
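Read-out: % PE-positive cells | Test system: HUVEC | Doses: One compound dose added by pin transfer | Buffer or medium: EGM-2 over gelatin coat | Signal: Immunofluorescence imaging | Benchmarks: TNF-alpha, DMSO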
Yeast UUG start: alters start codon recognition fidelity in yeast. S. cerevisiae UUG-firefly luciferase reporter, luminescence/redox ratio. activity score, % at 18.7 µM. 0.13% of 350,000 active. AID 602363;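 active = replicate mean at a twofold rise or more, about +100% in these data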;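 also: firefly luciferase made from a UUG start codon reports start codon fidelity; reporter light over untreated wells divided by growth signal over untreated wells; some hits fall short of that in this replicate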
PGC1a acetyl inh: lowers PGC1a acetylation signal in U2OS cells; AID 651687; AlphaScreen anti-acetyl-lysine; with virally co-expressed GCN5 acetyltransferase; 0.17% of 350,000 active; inhibition, % at 15.6 µM;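 active = every replicate shows inhibition of at least 40%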
C2C12 statin: suppressors of simvastatin-induced myotoxicity in C2C12 myotubes; ATP luminescence, 48 h; scaled: DMSO 0, geranylgeraniol control 100; rescue of ATP level, % at 7.49 µM; 0.78% of 330,000 active;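 active = mean ATP rescue above about 67%, or every replicate alone reaching that limit, limit read from the data, passing the limit was not always enough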;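 note: myotubes were challenged with 10 µM simvastatin during compound exposure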
Hits are given with their value; - = inactive; . = not tested or not shown. This is a sample that favours compounds with a hit; in the whole collection about 2.8% have one here.

SMILES | esBAF inh | PglD DTNB | E-sel inducer | Yeast UUG start | PGC1a acetyl inh | C2C12 statin
NC(=O)C1CC(=O)N(c2ccc(OCc3ccc(Cl)cc3Cl)cc2)C1 (stereo not drawn) | - | - | . | - | - | -
COc1cccc(/C=C(\C#N)c2nc3ccc(C)cc3[nH]2)c1OCC(=O)O | 51.3 | - | . | - | . | -
O=C(NCC[C@H]1CC[C@H](NC(=O)c2cccnc2)[C@H](CO)O1)Nc1ccc(F)cc1 | - | - | - | 203.1 | - | -
O=C(NCC[C@@H]1CC[C@@H](NC(=O)c2cccnc2)[C@H](CO)O1)Nc1ccc(C(F)(F)F)cc1 | 54.4 | - | - | . | - | -
COc1cccc(C#Cc2ccc([C@@H]3[C@@H](CO)N4C(=O)CN(C(=O)c5ccncc5)C[C@@H]34)cc2)c1 | . | . | - | . | - | .
CCOC(=O)N1CCN(S(=O)(=O)c2cc(Br)cc3c2N(C(C)=O)C(C)C3)CC1 (stereo not drawn) | - | - | . | - | - | -
CCOC(=O)C1CCN(S(=O)(=O)c2cc(Br)cc3c2N(C(C)=O)C(C)C3)CC1 (stereo not drawn) | - | - | . | - | - | 88.2
CC(C)NC(=O)N(C)C[C@H]1OCCCC[C@H](C)Oc2ccc(N(C)C)cc2C(=O)N([C@H](C)CO)C[C@H]1C | . | - | . | . | - | .
CCOC(=O)c1ccc(/[N+]([O-])=C/c2ccccc2)cc1 | 53.1 | - | . | - | - | -
C#CCCc1cscc1/C=[N+](\[O-])c1ccc(C(=O)OCC)cc1 | 61.7 | - | - | - | . | -
CCCCN(C(=O)Cc1cccs1)c1nnc(-c2cccnc2)s1 | 59.6 | - | . | - | - | .
O=C(c1cccnc1)N1C[C@@H]2[C@H](c3ccccc31)[C@H](CO)N2C(=O)Nc1ccc(F)cc1 | - | - | - | - | - | -
COc1ccc(C(=O)/C=C/Nc2cccc(C)n2)cc1OC | 46.7 | - | . | - | . | -
COc1ccc(N/C=C/C(=O)c2ccc(OC)c(OC)c2)cc1 | - | - | . | - | . | -
Cc1ccc(-c2nc(NCc3ccco3)c3ccccc3n2)cc1 | - | . | . | . | - | -
c1cncc(-c2nc(NCc3ccco3)c3ccccc3n2)c1 | - | - | . | - | - | 94.4
CCNC(=O)C[C@H]1CC[C@H]2[C@@H](COc3ccc(NC(=O)Nc4ccc(Cl)cc4)cc3C(=O)N2C)O1 | - | - | - | - | - | -
CCC(CC)c1nnc(NC(=O)c2ccc3ccccc3n2)s1 | 53.0 | - | . | - | - | -
O=C(Nc1nccs1)[C@H]1[C@H](CO)[C@H]2Cn3c(cccc3=O)[C@@H]1N2C(=O)C1CC1 | - | - | - | - | . | -
OCCN=c1cc(-c2ccccc2)oc2ccc(Cl)cc12 | 46.5 | - | . | - | - | .
CN(C)CCCN=c1cc(-c2ccccc2)oc2ccc(Cl)cc12 | . | . | - | . | . | .
COc1ccc(NC(=S)NCC2CCCO2)c(OC)c1 (stereo not drawn) | - | - | . | - | - | 91.0
O=C(NCC1CCCO1)c1cc2ccccc2o1 (stereo not drawn) | 43.7 | - | - | - | - | -
O=C(NCC1CCCCC1)c1cc2ccccc2cc1O | 54.0 | - | - | - | - | -
O=C(NNC(=O)c1cc2ccccc2cc1O)NC1CCCCC1 | - | - | . | - | . | -
SMILES | esBAF inh | PglD DTNB | E-sel inducer | Yeast UUG start | PGC1a acetyl inh | C2C12 statin
CC1CCC(NC(=O)c2cc3ccccc3cc2O)CC1 (stereo not drawn) | 77.2 | - | . | - | . | -
C[C@H](CO)N1C[C@H](C)[C@H](CN(C)C(=O)C2CC2)Oc2cc(-c3cccc(F)c3)ccc2S1(=O)=O | - | - | - | - | - | -
O=C(NCC1CCCO1)c1cc2ccccc2cc1O (stereo not drawn) | 56.9 | - | . | - | . | -
O=C(NCC1CCCO1)c1cccc2ccccc12 (stereo not drawn) | - | - | . | - | - | -
COc1cccc(-c2cc(C(=O)NCC3CCCO3)on2)c1 (stereo not drawn) | 55.6 | - | - | - | - | -
O=C(NCC1CCCO1)c1ccc(Cl)c(F)c1F (stereo not drawn) | - | - | . | - | - | 84.4
COc1ccc(-c2cc(C(=O)NCC3CCCO3)on2)cc1OC (stereo not drawn) | - | - | - | - | - | -
O=C(C[C@@H]1C=C[C@@H](NC(=O)C2CCOCC2)[C@H](CO)O1)NCC1CC1 | - | - | - | - | - | -
COc1ccccc1-c1ccc(NC2CCCC2)nn1 | 63.4 | - | . | - | - | -
COc1ccccc1-c1cnn2c(NC3CCCC3)cc(C)nc12 | 61.8 | - | - | - | . | -
CC=Cc1ccc2n(c1=O)C[C@@H]1[C@@H](CO)[C@H](C(=O)NCc3ccc(F)cc3)[C@H]2N1CC (mixture of isomers) | - | - | - | . | . | -
CC(C)(C)c1ccc(S(=O)(=O)CCc2ccccn2)cc1 | 70.5 | - | . | - | - | .
O=S(c1ccc2ccccc2c1)c1cnns1 (stereo not drawn) | - | - | . | - | - | 124.5
Cc1nnsc1S(=O)c1ccc(Cl)c(Cl)c1 (stereo not drawn) | - | - | - | - | - | -
C[C@@H]1CN([C@H](C)CO)S(=O)(=O)c2ccc(-c3cccnc3)cc2O[C@@H]1CN(C)CC1CC1 | - | - | - | - | - | -
Cc1n[nH]c(=S)n1/N=C/c1cccc(OCc2ccccc2)c1 | . | . | . | . | - | .
Cc1n[nH]c(=S)n1/N=C/c1ccccc1OCc1ccc(Cl)cc1 | 52.0 | - | . | - | . | -
Cc1cccc(C(=O)CC(=O)c2cc(Cl)ccc2O)c1 | 64.2 | - | . | - | - | -
O=C(CC(=O)c1cc(Cl)ccc1O)c1ccccc1 | 49.3 | - | . | - | - | -
Cc1ccc(O)c(C(=O)CC(=O)c2cccc(F)c2)c1 | . | . | . | . | - | .
Cc1ccc(O)c(C(=O)CC(=O)c2ccc(Cl)cc2)c1 | - | - | - | - | - | -
CCSc1nnc(NC(=O)c2cc3c(s2)CCCC3)s1 | 54.4 | - | . | - | - | -
COc1ccc(NC(=O)Nc2ccc3c(c2)C(=O)N([C@@H](C)CO)C[C@H](C)[C@@H](CN(C)C(=O)C2CCCCC2)OCCCC[C@@H](C)O3)cc1 | - | - | - | - | - | -
Clc1ccc(CSc2cc3c(nn2)-c2ccccc2CC3)cc1 | 52.3 | - | . | - | - | -
Cc1cccc(-n2cnc(C(=O)NC3CCCCCC3)c2)n1 | 68.1 | - | . | - | - | -
O=C(O)/C=C\C(=O)Nc1ccccc1C#Cc1ccccc1 | 56.3 | - | . | - | - | -
O=C(NC1CC1)c1cc2cc3ccccc3nc2s1 | 69.7 | - | - | - | - | -
C[C@@H]1CN([C@@H](C)CO)C(=O)c2cc(NC(=O)Nc3cccc4ccccc34)ccc2O[C@@H]1CN(C)CC1CCCCC1 | - | - | - | - | - | -
C[C@@H]1CN([C@@H](C)CO)C(=O)c2cc(NC(=O)Nc3ccc(F)cc3)ccc2O[C@@H]1CN(C)CC1CCCCC1 | - | 17.1 | - | - | . | -

Screening results deposited in PubChem by Broad Institute.
